Amino acid sequences for entries named in this document (tags omitted).
UniProt P33533, whole entry: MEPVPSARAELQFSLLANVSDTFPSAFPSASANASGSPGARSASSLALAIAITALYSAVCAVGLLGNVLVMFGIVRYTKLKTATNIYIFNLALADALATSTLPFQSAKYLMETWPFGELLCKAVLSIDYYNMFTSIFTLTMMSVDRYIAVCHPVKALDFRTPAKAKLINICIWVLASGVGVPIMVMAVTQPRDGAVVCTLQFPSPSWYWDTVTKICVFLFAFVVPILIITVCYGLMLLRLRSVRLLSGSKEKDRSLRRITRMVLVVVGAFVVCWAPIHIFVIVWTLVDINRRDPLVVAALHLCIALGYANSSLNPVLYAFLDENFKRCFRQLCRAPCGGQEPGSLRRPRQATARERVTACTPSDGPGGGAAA

The target of the assay is Delta-type opioid receptor (Rattus norvegicus, UniProt P33533). In words: Displacement of [3H]DPDPE from rat cortex delta opioid receptor after 2.5 hrs by liquid scintillation counting analysis. A general note: Loss of bound radioactivity is the signal in a displacement assay; it reports binding, not function.
Consider `NC(=O)[C@H](O)[C@H](Cc1ccccc1)NC(=O)[C@H](Cc1ccccc1)NC(=O)[C@@H]1CCCN1C(=O)[C@@H](N)Cc1ccc(O)cc1`, for which the affinity, expressed as Ki, was 967 nM.

In the case of `NC(=O)[C@H](O)[C@@H](Cc1ccccc1)NC(=O)[C@H](Cc1ccccc1)NC(=O)[C@@H]1CCCN1C(=O)[C@@H](N)Cc1ccc(O)cc1`, the Ki (commonly a dissociation constant, usually derived from enzyme kinetics or from competition with a known ligand) was determined as 462 nM.

Regarding `NC(=O)[C@@H](O)[C@@H](Cc1ccccc1)NC(=O)[C@H](Cc1ccccc1)NC(=O)[C@@H]1CCCN1C(=O)[C@@H](N)Cc1ccc(O)cc1`, the inhibition constant (Ki) was determined as 563 nM.

In the case of `NC(=O)[C@@H](O)[C@H](Cc1ccccc1)NC(=O)[C@H](Cc1ccccc1)NC(=O)[C@@H]1CCCN1C(=O)[C@@H](N)Cc1ccc(O)cc1`, the Ki amounted to 3840 nM.

Source of the values: ChEMBL document CHEMBL3407426, “Synthesis and biological evaluations of novel endomorphin analogues containing α-hydroxy-β-phenylalanine (AHPBA) displaying mixed μ/δ opioid receptor agonist and δ opioid receptor antagonist activities” (Eur J Med Chem, 2015).
